# Experimental data taken from paper PMC2375285, “Inhibition of all-TRANS-retinoic acid metabolism by R116010 induces antitumour activity” (British Journal of Cancer, 2002).
# Biological target: T1, CYP26A1 (Homo sapiens, UniProt O43174)
# T1 construct: microsomes of T47D human breast cancer cells that were pretreated for 16 h with 1 μM RA to induce RA metabolism; endogenous in cells; host or cells: T47D human breast cancer cells, pretreated with 1 μM RA for 16 h; microsomal fraction
# T1 sequence (O43174 1-497): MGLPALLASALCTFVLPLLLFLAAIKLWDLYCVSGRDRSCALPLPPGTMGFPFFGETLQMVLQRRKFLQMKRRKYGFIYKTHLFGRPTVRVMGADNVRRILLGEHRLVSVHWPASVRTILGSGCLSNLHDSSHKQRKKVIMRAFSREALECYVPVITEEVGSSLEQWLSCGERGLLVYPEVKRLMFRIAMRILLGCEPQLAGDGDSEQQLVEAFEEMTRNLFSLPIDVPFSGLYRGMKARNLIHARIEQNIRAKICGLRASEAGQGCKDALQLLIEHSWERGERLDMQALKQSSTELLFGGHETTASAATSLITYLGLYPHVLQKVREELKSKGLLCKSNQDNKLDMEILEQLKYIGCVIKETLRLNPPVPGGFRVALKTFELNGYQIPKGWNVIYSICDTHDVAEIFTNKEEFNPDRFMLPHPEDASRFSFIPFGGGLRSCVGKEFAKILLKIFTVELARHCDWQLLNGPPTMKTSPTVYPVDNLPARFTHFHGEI
# Assay: RA 4-hydroxylase in T47D human breast cancer microsomes
# Type: biochemical
smiles,measurement,value
"Clc1cccc(C(c2ccc3[nH]cnc3c2)n2ccnc2)c1.Clc1cccc(C(c2ccc3[nH]cnc3c2)n2ccnc2)c1.O=C(O)/C=C/C(=O)O.O=C(O)/C=C/C(=O)O.O=C(O)/C=C/C(=O)O (racemic) [liarozole-fumarate, ±-5-[(3-chlorophenyl)(1H-imidazole-1-yl)methyl]-1H-benzimidazole (E)-2-butenedioate (2:3), reference compound]",IC50,500 nM
